Sequences of proteins named here, by UniProt entry; tags and fusion partners are left off. Residues count along the entry.
UniProt P10721, 26-976: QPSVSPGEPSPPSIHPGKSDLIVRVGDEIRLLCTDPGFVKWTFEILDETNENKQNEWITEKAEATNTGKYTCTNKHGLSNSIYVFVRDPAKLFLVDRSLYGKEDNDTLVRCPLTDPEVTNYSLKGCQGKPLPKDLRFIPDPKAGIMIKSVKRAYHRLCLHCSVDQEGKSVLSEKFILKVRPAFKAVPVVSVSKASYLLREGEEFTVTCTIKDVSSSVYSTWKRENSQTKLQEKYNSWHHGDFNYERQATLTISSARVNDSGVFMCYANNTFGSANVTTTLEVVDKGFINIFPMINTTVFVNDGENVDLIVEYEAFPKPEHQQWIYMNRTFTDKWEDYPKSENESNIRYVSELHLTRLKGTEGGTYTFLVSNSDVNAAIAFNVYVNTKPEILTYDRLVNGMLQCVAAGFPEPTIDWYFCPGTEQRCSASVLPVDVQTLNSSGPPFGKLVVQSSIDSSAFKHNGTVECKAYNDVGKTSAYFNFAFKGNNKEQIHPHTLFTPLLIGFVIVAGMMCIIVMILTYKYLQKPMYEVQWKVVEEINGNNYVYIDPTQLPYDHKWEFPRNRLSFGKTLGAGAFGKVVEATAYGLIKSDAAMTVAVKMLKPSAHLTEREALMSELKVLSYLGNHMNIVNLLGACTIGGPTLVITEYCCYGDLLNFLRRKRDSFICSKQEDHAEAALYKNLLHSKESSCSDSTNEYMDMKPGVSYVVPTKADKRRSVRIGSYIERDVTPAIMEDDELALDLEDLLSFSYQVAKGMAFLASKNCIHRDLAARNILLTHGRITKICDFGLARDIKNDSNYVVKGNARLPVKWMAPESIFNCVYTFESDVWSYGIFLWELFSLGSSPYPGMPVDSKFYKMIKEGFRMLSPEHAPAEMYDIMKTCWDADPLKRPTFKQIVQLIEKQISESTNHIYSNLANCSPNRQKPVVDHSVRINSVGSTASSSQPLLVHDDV

According to patent publication US20100185419A1, “ALGORITHM FOR DESIGNING IRREVERSIBLE INHIBITORS” (Avila Therapeutics, Inc., priority 2008, published 2010):

Molecular target: c-KIT (Homo sapiens, UniProt P10721)
Assay: cKIT inhibition assay (electrophoretic mobility shift)
Assay type: biochemical
Parameters: purchased Millipore 14-559
Conditions: read-out: % Inhibition of c-KIT

In the case of C=CC(=O)Nc1ccc(C(=O)Nc2ccc(C)c(Nc3nccc(-c4cccnc4)n3)c2)cc1C(F)(F)F [Compound 2, 4-Acrylamido-N-(4-methyl-3-(4-pyridin-3-yl)pyrimidin-2-ylamino)phenyl-3-(trifluoromethyl)benzamide], the inhibition at 1 µM is reported as 88%.
